Results on 28 compounds are retold here after PubChem BioAssay AID1477 (National Center for Advancing Translational Sciences (NCATS), 2009).

Chains of the proteins cited; added tags and fusions are not shown.
UniProt Q01196, whole entry partner: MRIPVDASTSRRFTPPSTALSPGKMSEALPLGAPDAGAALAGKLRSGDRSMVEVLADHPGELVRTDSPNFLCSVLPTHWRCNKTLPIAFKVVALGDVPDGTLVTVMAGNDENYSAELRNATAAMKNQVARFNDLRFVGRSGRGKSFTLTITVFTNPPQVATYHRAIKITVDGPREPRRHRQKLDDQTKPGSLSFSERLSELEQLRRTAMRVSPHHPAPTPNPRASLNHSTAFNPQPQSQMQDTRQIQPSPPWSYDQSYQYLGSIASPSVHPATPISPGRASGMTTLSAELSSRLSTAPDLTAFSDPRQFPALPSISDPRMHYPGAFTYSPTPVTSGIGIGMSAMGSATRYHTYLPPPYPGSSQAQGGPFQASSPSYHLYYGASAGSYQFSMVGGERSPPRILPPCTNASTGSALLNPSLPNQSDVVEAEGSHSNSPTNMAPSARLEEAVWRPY
UniProt Q13951, whole entry: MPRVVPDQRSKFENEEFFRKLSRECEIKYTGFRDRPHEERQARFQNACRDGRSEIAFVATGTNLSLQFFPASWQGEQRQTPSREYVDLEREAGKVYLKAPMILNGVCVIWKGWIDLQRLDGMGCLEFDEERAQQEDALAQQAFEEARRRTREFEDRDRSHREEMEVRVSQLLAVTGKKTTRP

Structures are written as SMILES. This is a selection; strong and weak results do not stand in their true shares. Results filed as inconclusive are left out. Activity calls are given as the source filed them. Calls follow the shape of the dose curve; as a rule, active = well fitted curve in the direction sought with a large enough effect; inconclusive = small, poorly fitted or top-dose-only effect, or effect the other way, or another doubt; inactive = no such curve, though single readings can be large or run the other way.

This assay addresses Runt-related transcription factor 1 (Homo sapiens) + Core-binding factor subunit beta (Homo sapiens) (UniProt Q01196+Q13951). Nature of the assay: qHTS Assay for Compounds Blocking the Interaction Between CBF-beta and RUNX1 for the Treatment of Acute Myeloid Leukemia. Also: % of control where 0% means no effect. The settings on record: AlphaScreen CBFb-His/RUNX1-biotin binding, biochemical; at 59.8 µM (top of the series) unless noted. (In general: Quantitative high-throughput screening tests each substance at several concentrations.)
Turning to `O=C(OCCN1CCN(CCOCc2ccccc2)CC1)C(O)(c1ccccc1)c1ccccc1`, the activity, negative = inhibition was inactive: 13.7%.
For the compound `CC(C)c1ccc(OP(C)(=O)Nc2ccc(SC(F)(F)F)cc2)cc1` (stereo not drawn), the activity, negative = inhibition was inactive: 5.54%.
For `CP(=O)(Nc1ccccc1F)Oc1ccccc1` (stereo not drawn), the activity, negative = inhibition was inactive: -4.37%.
As to `CCCCCOc1ccc(NP(C)(=O)Oc2ccc(Cl)cc2Cl)cc1` (stereo not drawn), the activity, negative = inhibition is inactive: 7.19%.
For `CP(=O)(Nc1ccccc1)Oc1ccc(F)cc1` (stereo not drawn), the activity, negative = inhibition is inactive: 7.05%.
For `CCN(CC)CCCOC(=O)C(O)(c1ccccc1)C1CCCCC1` (stereo not drawn), the activity, negative = inhibition is inactive: 8.59%.
For the compound `COc1ccc(OP(C)(=O)Nc2ccc(SC(F)(F)F)cc2)cc1` (stereo not drawn), the activity, negative = inhibition was inactive: 13.1%.
For the compound `Cc1cccc([N+](=O)[O-])c1[N+](=O)[O-]`, the activity, negative = inhibition is inactive: 13.1% [at 21.7 µM].
The same measure for `CCC(C)(OO)OOC(C)(CC)OO` (stereo not drawn): inactive: 5.46% [at 21.7 µM]; for `Cc1cc(-c2cccc3ccccc23)c(C)cn1.O=[N+]([O-])c1cc([N+](=O)[O-])c(O)c([N+](=O)[O-])c1`: inactive: 0.32%.
In the case of `Cc1c([N+](=O)[O-])cccc1[N+](=O)[O-]`, the activity, negative = inhibition is inactive: -7.05% [at 21.7 µM].
For `Cc1ccc([N+](=O)[O-])c([N+](=O)[O-])c1`, the activity, negative = inhibition was inactive: 13.7% [at 21.7 µM].
As for `O=[N+]([O-])c1ccc(OP2(=O)COCCO2)cc1` (stereo not drawn), the activity, negative = inhibition was inactive: 5.66%.
In the case of `COc1ccc(NP(C)(=O)Oc2ccccc2OC)cc1` (stereo not drawn), the activity, negative = inhibition is inactive: 1.03%.
Take `CN(C)CCOC(=O)C(O)(c1ccccc1)C1CCCCC1` (stereo not drawn): the activity, negative = inhibition was inactive: 5.73%.
Take `COc1ccc(OP(C)(=O)Nc2cccc(Br)c2)cc1` (stereo not drawn): the activity, negative = inhibition is inactive: -1.78%.
Turning to `Cc1ccccc1NP(C)(=O)Nc1ccccc1C`, the activity, negative = inhibition is inactive: 2.16%.
The same measure for `CP(=O)(Nc1ccc2c(c1)OCCO2)Oc1ccccc1` (stereo not drawn): inactive: -1.82%.
In the case of `CCOP(=O)(CC)OCC`, the activity, negative = inhibition is inactive: 11% [at 21.7 µM].
As for `CCOP(C)(=S)SCC(=O)NC(C)(CC)C(=O)O` (stereo not drawn), the activity, negative = inhibition is inactive: 4.03%.
For the compound `CP(=O)(Nc1ccc(SC(F)(F)F)cc1)Oc1ccc(F)cc1` (stereo not drawn), the activity, negative = inhibition was inactive: 10.8%.
Consider `CN(C)C(=O)c1c([N+](=O)[O-])cc([N+](=O)[O-])cc1[N+](=O)[O-]`, for which the activity, negative = inhibition is inactive: -0.047%.
The same measure for `CP(=O)(Nc1ccc(Cl)cc1)Oc1ccc(F)cc1` (stereo not drawn): inactive: 3.6%; for `COc1ccccc1OP(C)(=O)Nc1ccccc1Br` (stereo not drawn): inactive: 1.56%; for `CC(C)(C)c1ccc(OP(C)(=O)O)cc1`: inactive: -4.69%.
`CCc1ccc(OP(C)(=O)Nc2cccnc2)cc1` (stereo not drawn): the activity, negative = inhibition is inactive: -2.16%.
As for `CP(=O)(Oc1ccccc1)N1CCOC1=O` (stereo not drawn), the activity, negative = inhibition is inactive: 0.175%.
On to `O=C(OCCCN1CCCC1)C(O)(c1ccccc1)C1CCCCC1` (stereo not drawn), for which the activity, negative = inhibition is inactive: 14%.
